## Binding of CDR-mutated scFvs to a peptide of the spike HR2 region

All variants were tested on one target, the spike HR2 peptide PDVDLGDISGINAS (SARS-CoV-2).

Each scFv is VH, a (GGGGS)3 linker, VL, as in the parent Ab-14, and differs from it in the CDRs of the light chain only.
VH: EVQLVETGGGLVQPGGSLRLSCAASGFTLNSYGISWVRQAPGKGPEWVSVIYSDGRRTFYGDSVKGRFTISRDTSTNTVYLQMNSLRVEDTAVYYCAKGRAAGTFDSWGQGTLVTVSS
VL: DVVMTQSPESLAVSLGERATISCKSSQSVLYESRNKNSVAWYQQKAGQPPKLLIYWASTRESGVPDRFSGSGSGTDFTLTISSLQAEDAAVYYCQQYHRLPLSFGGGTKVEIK

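The variants were designed computationally from a first round of random CDR variants and then made and measured. Group labels follow the data file (Ctrl: baseline library sampled from a position-specific scoring matrix, with some repeated check sequences; Rand: our label for a block that the file lists under HC and that is probably the random mutants of the ten best first-round binders; GP: Gaussian process model; HC: hill climbing; Gen: genetic algorithm; Gibbs: Gibbs sampling; a sequence that several methods proposed may carry one label only). AlphaSeq pools MATa yeast showing the antibodies with MATalpha yeast showing the peptide. The frequency of each diploid, read from paired DNA barcodes, reflects how well the two displayed proteins bind. The ratio of observed to expected reads was calibrated, replicate by replicate, on BCL2-family standards whose Kd was known from biolayer interferometry. There are six technical replicates.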

Positions count from residue 1 of the parent VL; S25L puts L in place of S. Variants here have at most six changes. Scale: log10 of Kd in nM, estimated from mating counts; low values are strong binders. Averages over replicates are reported, and they cover detected replicates only. An entry "nd" has no value in the source: the pair was not observed among the diploids in any replicate. This suggests poor binding but is not conclusive. Values of this round are not directly comparable with the first-round values of the same sequences. Three control strains display no target. For all light chain designs, 4% of the pairings with them gave a signal, with a median of 2.64 and one signal in twenty below 1.59, so weak values seen in few replicates may be background. The authors averaged sequences with at least three values out of six and counted those with two or fewer as poor binders.

For S25L/S33M/W56N/E61L [GP_Gen], the assay gave 0.32 (6 of 6 replicates).
For S25E/V29W/L30I/W56N [GP_HC], the assay gave 0.10 (6 of 6 replicates).
For L30A/Y31A/K36A/W56D [GP_HC], the assay gave -0.04 (6 of 6 replicates).
For S28D/R34K/W56G [Ctrl], the assay gave -0.09 (6 of 6 replicates).
For L100H/L102S [Ctrl], the assay gave nd (0 of 6 replicates).
For E32Q [Ctrl], the assay gave nd (0 of 6 replicates).
For Q27M/V29Y/Y31G/S33K/W56E [GP_HC], the assay gave 0.37 (6 of 6 replicates).
For S26G/S28G/Y31Q/N35V/W56G [GP_HC], the assay gave 0.72 (6 of 6 replicates).
For S25L/S26R/V29I/W56N/Q96I [GP_HC], the assay gave 0.25 (6 of 6 replicates).
For K24H/S25L/Q27W/S28K/W56N [GP_HC], the assay gave -0.12 (6 of 6 replicates).
For S25V/V29E/N35M/W56N/T59Q [GP_Gen], the assay gave 0.45 (6 of 6 replicates).
For S26Q/S28G/W56G/S103H [GP_HC], the assay gave 0.46 (6 of 6 replicates).
For K24H/S25L/Q27M/W56N/S103N [GP_HC], the assay gave -0.08 (6 of 6 replicates).
For S25L/W56G/S62K [GP_Gen], the assay gave -0.14 (6 of 6 replicates).
For S25F/L30C/S33Q/N35Q/W56N/E61M [GP_Gibbs], the assay gave 0.24 (6 of 6 replicates).
For S25N/N37K/W56Q/P101W [Ctrl], the assay gave nd (0 of 6 replicates).
For S25L/S28L/V29M/W56N/E61L/Q96D [GP_Gibbs], the assay gave 0.51 (6 of 6 replicates).
For V29L/H98Q [Ctrl], the assay gave 1.77 (6 of 6 replicates).
For S25L/S26M/W56G [GP_Gen], the assay gave -0.22 (6 of 6 replicates).
For S25L/Y31G/W56D [GP_Gen], the assay gave 0.08 (6 of 6 replicates).
For L30D/Y31P/W56D [GP_HC], the assay gave 1.34 (6 of 6 replicates).
For S28G/S38H/W56G [GP_HC], the assay gave 1.22 (6 of 6 replicates).
For S26L/Q27T/R34N/W56H/S62D [GP_HC], the assay gave 0.17 (6 of 6 replicates).
For L30A/R34M/W56N [Ctrl], the assay gave 0.45 (6 of 6 replicates).
For Q27P/L30F/K36A/N37V/L100K [Ctrl], the assay gave nd (0 of 6 replicates).
For R34V/N35W [Ctrl], the assay gave 2.19 (6 of 6 replicates).
For S25L/W56E/T59Q/E61L [GP_Gen], the assay gave -0.37 (6 of 6 replicates).
For S25L/S26P/V29M/W56Q/S103T [GP_Gibbs], the assay gave -0.11 (6 of 6 replicates).
For W56D/Y97I [Ctrl], the assay gave nd (0 of 6 replicates).
For S25G/Q27G/L30K/Y31F/W56D [GP_HC], the assay gave -0.21 (6 of 6 replicates).
For V29D/L30M/Y31G/W56E/E61S/S103D [Ctrl], the assay gave 2.13 (5 of 6 replicates).
For K24H/S25L/W56N/T59Q [GP_Gen], the assay gave 0.31 (6 of 6 replicates).
For S25V/R34T/W56N/R60A [Ctrl], the assay gave 0.62 (6 of 6 replicates).
For Q27K/Y31F/W56C/R99Q/S103R [Rand], the assay gave 1.88 (1 of 6 replicates).
For S25L/S26C/V29M/W56M/H98L [Ctrl], the assay gave 0.97 (6 of 6 replicates).
For W56C/T59I [Ctrl], the assay gave 2.08 (6 of 6 replicates).
For S25M/Y31Q/S33E/K36D/W56S/E61C [GP_Gibbs], the assay gave 0.16 (6 of 6 replicates).
For L30M/W56E [GP_Gen], the assay gave nd (0 of 6 replicates).
For S25L/S26V/Q27N/V29T/N35Q/W56D [GP_HC], the assay gave 1.87 (6 of 6 replicates).
For S25F/N35T/K36W/W56N [GP_HC], the assay gave 0.60 (6 of 6 replicates).
For Y31G/S33Q/W56E [GP_HC], the assay gave 1.09 (6 of 6 replicates).
For S25L/S26M/Q27G/V29S/W56N/S62V [GP_Gibbs], the assay gave -0.23 (6 of 6 replicates).
For S26E/S38N/W56H/S62D/H98A [GP_HC], the assay gave -0.23 (6 of 6 replicates).
For S25L/S26Q/W56N/Q96D [GP_Gen], the assay gave -0.21 (6 of 6 replicates).
For S25F/Q27W/Y31F/W56D [GP_HC], the assay gave -0.29 (6 of 6 replicates).

A selection of 7 entries from above:

changes,group,mean log10 Kd (nM),seen in
S25M/Y31Q/S33E/K36D/W56S/E61C,GP_Gibbs,0.16,6/6
W56C/T59I,Ctrl,2.08,6/6
Q27P/L30F/K36A/N37V/L100K,Ctrl,nd,0/6
S25F/Q27W/Y31F/W56D,GP_HC,-0.29,6/6
S25L/S26V/Q27N/V29T/N35Q/W56D,GP_HC,1.87,6/6
S25N/N37K/W56Q/P101W,Ctrl,nd,0/6
S25L/S26R/V29I/W56N/Q96I,GP_HC,0.25,6/6

Reference: Li et al. 2023, doi:10.1038/s41467-023-39022-2. File: FLAb, binding data.